# Curated experimental data: properties

Source: data files of OPERA 2.9 (Mansouri et al.), github.com/kmansouri/OPERA.

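The OPERA project collected these measurements from public sources as training and test data for property models. The files give a single number for a compound and property, which may rest on several reports. Conditions of the individual experiments are not part of the data. The measured form (salt, isomer or mixture) is not always the one drawn. Some entries may be limits or estimates that an upstream database listed as plain numbers.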

Melting points are in °C. Boiling points are in °C, nominally at 760 mmHg. The octanol-water partition coefficient is given as log10; larger values mean a more lipophilic compound. Water solubility is log10 of mol/L, nominally at 25 °C; higher is more soluble. Vapor pressure is log10 of mmHg; the set covers 15 to 30 °C, mostly 20 to 25 °C. Henry's law constant (air-water partitioning) is log10 of atm·m3/mol, nominally at 25 °C. fu is the fraction unbound in human plasma, from 0 to 1. Intrinsic clearance (human, µL/min per 10^6 hepatocytes): higher is faster turnover, and 0 stands for none detected.

* CCCC1CCCC(C2CCCC(c3cc(F)c(F)c(F)c3)C2)C1 (stereo unspecified): melting point 65.6 °C; water solubility -5.831 (log10 mol/L); log VP -6.117 (log10 mmHg)
* COc1cc([N+](=O)[O-])ccc1N=NC(C(C)=O)C(=O)Nc1ccc(S(=O)(=O)NCCCN(C)C)cc1 (stereo unspecified): melting point 198.4 °C; water solubility -7.42 (log10 mol/L); log VP -8.201 (log10 mmHg)
* COc1ccc(CN2C(=O)c3ccc4c5ccc6c7c(ccc(c8ccc(c3c48)C2=O)c75)C(=O)N(Cc2ccc(OC)cc2)C6=O)cc1: log Kow 1.6; water solubility -8.499 (log10 mol/L)
* CCCCOC(=O)c1ccccc1 [Butyl benzoate]: fu 0.313; hepatic Clint 864 µL/min/10^6 cells
* CCNC(=S)NCC [N,N'-Diethylthiourea]: water solubility -1.46 (log10 mol/L); log VP -5.319 (log10 mmHg)
* Fc1c(Cl)ncnc1Cc1ccccc1Cl [4-Chloro-6-(2-chlorophenoxy)-5-fluoropyrimidine]: boiling point 307.5 °C; water solubility -3.476 (log10 mol/L); log VP -2.451 (log10 mmHg)
* Clc1cc(Cl)c(Cl)c(-c2c(Cl)c(Cl)c(Cl)c(Cl)c2Cl)c1Cl [2,2',3,3',4,5,5',6,6'-Nonachlorobiphenyl]: melting point 204 °C; log VP -6.035 (log10 mmHg)
* N#CCCN(CCC#N)c1ccc(N=Nc2ccc([N+](=O)[O-])cc2Cl)cc1: log Kow 2.074; water solubility -4.282 (log10 mol/L)
* CCCCCCC(O)CCCCCCCCCCC(=O)NCCNC(=O)CCCCCCCCCCC(O)CCCCCC (stereo unspecified) [N,N'-Ethylenebis(12-hydroxyoctadecanamide)]: melting point 138.5 °C; log VP -7.866 (log10 mmHg)
* CCCCCOc1ccc2c(oc3c(F)c(OCC)ccc32)c1F [3-Ethoxy-4,6-difluoro-7-pentyloxy-dibenzofurane]: melting point 59.4 °C; boiling point 370 °C; water solubility -7.093 (log10 mol/L); log VP -7.389 (log10 mmHg)
* CCCCCCCCCCCCCCCCCC(=O)OCC(CC)CCCC (stereo unspecified) [2-Ethylhexyl octadecanoate]: melting point 10 °C; water solubility -6.899 (log10 mol/L)
* c1ccc(CC2=NCCN2)cc1 [Tolazoline]: water solubility -2.071 (log10 mol/L); fu 0.77
* CC(=O)OC1C(C)(C)[C@H]2CC[C@]1(C)C2 (stereo partly specified) [Fenchyl acetate]: log Kow 4.33; water solubility -3.875 (log10 mol/L)
* O=C(O)c1ccccc1Nc1cccc(C(F)(F)F)c1 [Flufenamic acid]: water solubility -4.821 (log10 mol/L); fu 0.1
* CCCCC(CC)COC(C)=O (stereo unspecified) [2-Ethylhexyl acetate]: log Kow 4.16; water solubility -4.645 (log10 mol/L)
* CC(C)Nc1nc(=O)nc(NC(C)C)[nH]1 [1,3,5-Triazin-2(1H)-one, 4,6-bis((1-methylethyl)amino)-]: water solubility -3.31 (log10 mol/L); Henry's law constant -5.802 (log10 atm·m3/mol)
* C#C[C@]1(OC(C)=O)CC[C@H]2[C@@H]3CCC4=C[C@@H](OC(C)=O)CC[C@@H]4[C@H]3CC[C@@]21C [Ethynodiol diacetate]: log Kow 5; water solubility -4.986 (log10 mol/L); fu 0.325
* Cl[Si](Cl)(C1CCCC1)C1CCCC1 [Dicyclopentyldichlorosilane]: melting point -13.9 °C; log VP -1.802 (log10 mmHg)
* Nc1ccccc1O [2-Aminophenol]: boiling point 153 °C; log VP -2.02 (log10 mmHg)
* CCN(CC)c1ccc(N=Nc2c(C#N)cc([N+](=O)[O-])cc2C#N)c(C)c1: melting point 220.9 °C; log Kow 4.7; water solubility -7.473 (log10 mol/L); log VP -9.319 (log10 mmHg)
* CC1(C)[C@H]2[C@H](O)OC(=O)[C@H]21: melting point 112.8 °C; boiling point 270.9 °C; log Kow 0.899; log VP -4.949 (log10 mmHg)
* CC(C)=CCC[C@](C)(O)[C@@H]1CC=C(C)CC1 [Levomenol]: log Kow 5.15; water solubility -3.952 (log10 mol/L); log VP -3.806 (log10 mmHg)
* CC(C#N)N(CC#N)CC#N (stereo unspecified) [2-[Bis(cyanomethyl)amino]propanenitrile]: melting point 80 °C; log Kow 0.7; log VP -6.453 (log10 mmHg)
* Cc1c(S(C)(=O)=O)ccc(C(=O)O)c1Cl [2-Chloro-4-(methanesulfonyl)-3-methylbenzoic acid]: melting point 229 °C; boiling point 405 °C; log Kow 0.004; water solubility -2.617 (log10 mol/L)
* O=[N+]([O-])c1cc(/N=N/c2ccc(/N=N/c3ccc(S(=O)(=O)[O-])cc3)c(O)c2[O-])c([O-])c([N+](=O)[O-])c1.[Cu+2].[Na+] [C. I. Acid Brown 97]: log Kow -3.664; water solubility -2.208 (log10 mol/L)
* CCCCCCCCCCCCCCCCCCP(=O)(OC)OC [Dimethyl octadecylphosphonate]: melting point 40.23 °C; log Kow 8.41; water solubility -5.53 (log10 mol/L); log VP -4.178 (log10 mmHg)
* C1CCc2[nH]nnc2C1 [1H-Benzotriazole, 4,5,6,7-tetrahydro-]: melting point 54 °C; log Kow 0.705
* Cn1[nH]c(=O)c(=O)nc1SCC1=C(C(=O)O)N2C(=O)[C@@H](N)C2SC1 (stereo partly drawn): melting point 375 °C; water solubility -3.303 (log10 mol/L)
* CN(C)c1ccc(/N=N/c2n(C)cc[n+]2C)cc1.[Cl-]: log Kow -1.97; log VP -9.698 (log10 mmHg)
* N#CC(CCBr)(c1ccccc1)c1ccccc1 [4-Bromo-2,2-diphenylbutanenitrile]: log Kow 4.2; log VP -5.684 (log10 mmHg)
* Cc1ccc(C(=O)Nc2ccc(S(=O)(=O)[O-])cc2)cc1[N+](=O)[O-].[Na+] [Sodium 4-(4-methyl-3-nitrobenzoylamino)benzenesulphonate]: melting point 298.5 °C; log Kow -1.94